Test results reported in patent US20240408138A1 (UNIVERSITY OF CHICAGO, published 2024).

Target: T1, INCENP N-terminal domain (1-58), His- and Avi-tagged, biotinylated (UniProt Q9NQS7 1-58, biotinylated (Avi-tag, co-expressed E. coli biotin ligase BirA))
T1 construct: range 1-58; Expressed in E. coli BL21(DE3); also called INC-N; INCENP N-terminal domain (AA 1-58); not shown: His-tag and Avi-tag
T1 sequence (looked up): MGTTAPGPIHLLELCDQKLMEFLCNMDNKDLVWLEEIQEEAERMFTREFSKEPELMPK
Test: single-point protein ELISA, 200 nM Fab on 50 nM immobilised biotinylated target, protein L-HRP, A450
Description: To rapidly reconfirm the binding and specificity of the obtained Fabs after reformatting into the expression vectors single-point Fab ELISA was performed (FIG. 2). Briefly, 50 nM Avi-tagged targets were immobilized on the prepared NAV-coated and blocked with 0.5% BSA in PBS 96-well ELISA plates. The target coated plates were washed with appropriate buffer (TBST or PBST) and were incubated with 200 nM Fab for 20 minutes and then washed. The washed plates were incubated with protein L conjugated with HRP (1:5000 diluted in TBST) for 30 minutes. Plates were washed and the reaction was developed using the TMB chromogenic substrate (Thermofisher) and subsequently quenched with 1M HCl. Absorbance was read at 450 nm on Epoch plate reader.

B1: INC-N-02 (Fab, V domains shown)
VH: EVQLVESGGGLVQPGGSLRLSCAASGFNFYSSIHWVRQAPGKGLEWVASIYSYYGSTYYADSVKGRFTISADTSKNTAYLQMNSLRAEDTAVYYCARYSRWGWYTYGAFDYWGQGTLVTVSS
VL: DIQMTQSPSSLSASVGDRVTITCRASQSVSSAVAWYQQKPGKAPKLLIYSASSLYSGVPSRFSGSRSGTDFTLTISSLQPEDFATYYCQQMMWFPITFGQGTKVEIKR
B1: binds.
